From ChEMBL document CHEMBL1641538, “Synthesis of a novel human PPARδ selective agonist and its stimulatory effect on oligodendrocyte differentiation” (Bioorg Med Chem Lett, 2011) come the findings set out here.

As a reminder, the EC50 is the midpoint of the concentration-response curve.

In the assay the target is T1, Peroxisome proliferator-activated receptor alpha (Homo sapiens, UniProt Q07869).
T1 sequence (Q07869 whole entry): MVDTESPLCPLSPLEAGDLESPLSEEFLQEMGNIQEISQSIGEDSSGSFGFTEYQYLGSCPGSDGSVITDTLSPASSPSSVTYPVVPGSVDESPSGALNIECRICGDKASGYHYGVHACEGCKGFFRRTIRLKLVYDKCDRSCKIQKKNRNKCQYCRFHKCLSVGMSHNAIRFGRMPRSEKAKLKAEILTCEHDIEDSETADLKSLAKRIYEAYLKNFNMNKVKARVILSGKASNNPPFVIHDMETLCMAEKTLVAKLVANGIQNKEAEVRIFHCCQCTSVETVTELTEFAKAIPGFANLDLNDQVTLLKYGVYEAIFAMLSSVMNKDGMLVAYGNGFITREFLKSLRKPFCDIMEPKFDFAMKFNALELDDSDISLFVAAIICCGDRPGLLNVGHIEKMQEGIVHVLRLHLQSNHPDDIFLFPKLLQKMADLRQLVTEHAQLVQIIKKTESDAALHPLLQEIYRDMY
The experiment in a line: Transactivation of Gal4-fused human PPARalpha DNA binding domain expressed in african green monkey CV1 cells by luciferase reporter gene assay. It counts as cell-based, CV-1.

As to `Cc1nc(-c2ccc(C(F)(F)F)cc2)sc1C(=O)NCc1ccc(OC(C)(C)C(=O)O)cc1` [GW590735], the EC50 worked out at 10 nM.
